Measurements reported in patent US20160095923A1, “ORAL COMPOSITION COMPRISNG (+)-CATECHIN” (VALORE, priority 2013, published 2016).

Conditions: in vivo, po
Protocol: The experimental results described below were obtained on the basis of a study carried out in healthy human beings and in healthy Wistar rats weighing approximately 250 grams.
With regard to taking the blood samples from the rats and from the human beings, the blood was collected in tubes internally coated with EDTA and was then centrifuged at 3000 rpm (revolutions per minute) at ambient temperature for 45 min, and then for 15 min at a temperature of 4° C. The plasma was then collected and stored at −70° C. before analysis.
The analytical technique (LC-MS/MS for Liquid Chromatography coupled to tandem Mass Spectrometry) for measuring the active substance in the blood was based on the method described by Mata-Bilbao et al., published in 2007 in the Journal of Agricultural and Food Chemistry, volume 55, page 8857.
The free (+)-catechin was extracted from the plasma with a solution of phosphoric acid, EDTA and ascorbic acid and was then purified by SPE (solid phase extraction); in particular, it is an Oasis™ HLB extraction which is analyzed by LC-MS/MS. The quantification was carried out according to a standard calibration procedure with (+/−)-catechin-2,3,4-^13C3 as internal standard (SI).
This complex salt is administered to a group A of 5 healthy volunteers.
This ct parameter makes it possible to calculate, from the data of table 1, the bioavailability of the (+)-catechin expressed in ng h/ml.

## Cl.NCCCCC(N)C(=O)O.Oc1cc(O)c2c(c1)O[C@H](c1ccc(O)c(O)c1)[C@@H](O)C2 [monomeric (+)-catechin hydrochlorolysinate]
  c (max): 525 ng/mL
  ct (total concentration, area under curve over 6 h): 1263 ± 88 ng·h/mL
  increase in c (max) compared with pure monomeric (+)-catechin: 103%
